Measured values as given in ChEMBL document CHEMBL2311254, “Tuning the preference of thiodigalactoside- and lactosamine-based ligands to galectin-3 over galectin-1” (J Med Chem, 2013).

Amino acid sequences for entries named in this document (tags omitted).
UniProt P09382, whole entry: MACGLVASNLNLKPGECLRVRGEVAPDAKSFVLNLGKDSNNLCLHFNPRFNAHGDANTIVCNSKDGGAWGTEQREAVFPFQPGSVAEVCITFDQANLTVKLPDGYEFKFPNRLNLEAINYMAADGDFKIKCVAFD

Molecular target: Galectin-1 (Homo sapiens, UniProt P09382)
Test: Binding affinity to galectin-1 (unknown origin) by fluorescence polarization assay

OC[C@H]1O[C@@H](S[C@@H]2O[C@H](CO)[C@H](O)[C@H](O)[C@H]2O)[C@H](O)[C@@H](O)[C@H]1O [THIODIGALACTOSIDE]
Kd: 24 µM
